Laboratory results from the NIST ThermoML archive (doi:10.1016/j.fluid.2007.09.002).

Details: Liquid, Closed cell (Static) method

CCCCOCCCC [dibutyl ether]
Details | vapor or sublimation pressure [kPa]
263.15 K | 0.077
273.15 K | 0.166
283.15 K | 0.337
293.15 K | 0.649
298.15 K | 0.885
303.15 K | 1.193
313.15 K | 2.103
323.15 K | 3.571
333.15 K | 5.862
343.15 K | 9.329
